Assay results published in article PMC4417150, “Selective inhibition of miR-21 by phage display screened peptide” (Nucleic Acids Research, 2015).
Blank lines part the entries; values can stand above or below the molecule they belong to.

What was measured:
[1] = test system: pre-miR-21; test: Tryptophan fluorescence titration (binding isotherm) with pre-miR-21; details: peptide 100 nM; for binding to pre-miR-21 (in words): fluorescence titration, pre-miR-21 0 to 2 μM, pH 7.5; for intrinsic fluorescence change in the presence of pre-miR-21: 10 mM Tris-HCl (pH 7.5), 10 mM NaCl, 1 mM MgCl2
Experimental: Intrinsic fluorescence spectra of the tryptophan containing peptides were measured in Fluoromax 4 (Spex) spectrofluorophotometer. The excitation wavelength was set at 285 nm, and the emission spectra were recorded from 330 to 400 nm. In the titration experiments, the peptide concentration was fixed at 100 nM in a buffer containing 10 mM Tris-HCl (pH 7.5), 10 mM NaCl, 1 mM MgCl2 and the concentrations of the pre-miRNAs were varied from 0 to 2 μM. The changes in the fluorescence intensity at 355 nm (maximum wavelength) were monitored as a function of pre-miRNA concentrations. For data analysis, where F is the observed fluorescence intensity at each titrant concentration and Fi is the fluorescence intensities of initial states of titration. The data were fitted in the following equation: […]

[2] = test system: mature miR-21 in MCF-7 cells; test: qRT-PCR for mature miR-21 in MCF-7; assay type: cell-based; details: MCF-7, 24 h, 0–10 μM, normalized to U1, three independent experiments
Experimental: Cells maintained in growth medium (DMEM high-glucose, 10% FBS, without antibiotic and antimycotic) were passaged in 24-well plate (5 × 10^4 cells/well), grown to 80% confluency and treated with different concentrations of the peptides. Cells were then incubated at 37°C humidified incubator (5% CO2) for 24 h. Total RNA was isolated from cells using TRizol® Reagent (Invitrogen). Expressions of mature microRNAs were determined by QuantiMir kit. (SBI, catalog number RA660A-1). Primers used for qRT-PCR is listed below: […]
Forward primer: […]
Reverse primer: QuantiMir universal reverse primer
The microRNA expression levels were detected using SYBR-green I PCR master mix (Applied biosystems) on Roche Lightcycler LC 480 and normalized with respect to U1 as a reference gene. The Real Time data analysis was done by using 2(-Delta Delta C(T)) method ([47]).

[3] = biological target: T1, wild-type 12-mer peptide ALWPPNLHAWVP (synthetic (phage display Ph.D.-12 …)); test: intrinsic Trp fluorescence titration; Footprinting: 10 mM Tris-HCl pH 7.5, 10 mM NaCl, 1 mM MgCl2, 37 C; fluorescence titration conditions not in the material; details: hairpin
T1 chain: ALWPPNLHAWVP

binding to pre-miR-21 (in words) [1]: weak binding
intrinsic fluorescence change in the presence of pre-miR-21 [1]: did not show significant change
Molecule: LPPAPWNWAHVL [scrambled mutant, control peptide, scrambled mutant: …]
relative level of mature miR-21 [2]: totally ineffective in down regulating miR-21

binding to pre-miR-21 (in words) [1]: weak binding
intrinsic fluorescence change in the presence of pre-miR-21 [1]: did not show significant change
Molecule: PVWAHLNPPWLA [reverse mutant, control peptide, reverse mutant: …]
relative level of mature miR-21 [2]: totally ineffective in down regulating miR-21

B1: pre-miR-21 (structured_RNA)
RNA: UGUCGGGUAGCUUAUCAGACUGAUGUUGACUGUUGAAUCUCAUGGCAACACCAGUCGAUGGGCUGUCUGACA
Kd [3]: 12.7 nM
